# Assay results as given in PMC3100226 (Journal of Pain Research, 2011).
# Protein sequences, listed by entry. Tags and fused reporters are not part of them. Residues count along the entry.
# UniProt P07727, 29-457: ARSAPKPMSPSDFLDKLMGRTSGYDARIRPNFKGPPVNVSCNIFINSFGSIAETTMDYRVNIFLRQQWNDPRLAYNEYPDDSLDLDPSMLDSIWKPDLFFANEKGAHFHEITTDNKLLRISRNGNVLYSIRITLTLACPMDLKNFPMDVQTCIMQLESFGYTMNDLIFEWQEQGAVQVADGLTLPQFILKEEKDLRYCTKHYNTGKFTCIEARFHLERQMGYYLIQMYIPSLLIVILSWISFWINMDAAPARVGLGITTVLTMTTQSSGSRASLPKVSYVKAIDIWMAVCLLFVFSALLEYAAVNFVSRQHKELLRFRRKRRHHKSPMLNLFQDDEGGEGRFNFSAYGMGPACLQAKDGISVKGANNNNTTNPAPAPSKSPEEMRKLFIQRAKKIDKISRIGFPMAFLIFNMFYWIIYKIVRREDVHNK
# Biological target: Glycine (strychnine-sensitive) (Rattus norvegicus, UniProt P07727)
# Test: Receptor characterization panel: glycine receptor binding
# Details: read-out: Reference agents (IC50); [3H]Strychnine; spinal cord/rat
smiles,measurement,value
"NCC(=O)O [Glycine, reference compound]",IC50,13 µM
